These results are taken from patent publication US8114961B2.

This assay has as its target murine laminin-1 (NEBiolabs) (murine) (UniProt P19137). As to the kind of experiment: ELISA: plates precoated with murine laminin-1, increasing LamR concentrations, Penta-His HRP detection, one-site binding hyperbola.

In turn, “LamR-220 (residues 1-220 of human 37 kDa LamR protein) (receptor)” had an equilibrium dissociation constant (Kd) of 1700 nM.
As for “LamR-295 (full-length human laminin receptor having residues 1-295) (from UniProt P08865)”, the Kd is 700 nM. Compared with the last substance, the Kd is about 2.4-fold lower.
